Experimental data from PubChem BioAssay AID2740 (NMMLSC, 2010).

Tested on: S. cerevisiae RPL19A-GFP strain, flow cytometry fluorescence, 3 h
Assay: TOR pathway RPL19A-GFP modulators, concentration series – cell-based, S. cerevisiae, flow cytometry, MLPCN hits, dose response (AID 2740)

EC50 [nM] | Compound
1280 | CC(C)(C)n1nc(-c2ccc(Cl)cc2)c2c(N)ncnc21
825 | Cc1ccc(-c2nn(C(C)(C)C)c3ncnc(N)c23)cc1
